Assay results: PMC4837003

Target: HLA-A*0201 heavy chain with β2-microglobulin
Test: differential scanning fluorimetry

apparent Tm by DSF: 59.4 °C
half-life of the complex (slowest phase, peptide dissociation): 16.9 h
Substance: MART-1_(26(2L)-35) peptide
